These are literature values, as cited in PMC8876231, “Analogues of Natural Chalcones as Efficient Inhibitors of AKR1C3” (Metabolites, 2022).

The term pIC50 denotes the negative decadic logarithm of the IC50, by convention in mol/L.

In the series the test system is AKR1C3. The note with it: read-out: AKR1C3 IC50; cited from earlier work.

pIC50: −log10 of the molar value.

With baccharin, the pIC50 is 7.00.
